{"source": "patent US20100311677A1", "about": "“Active Ingredient Combinations Having Insecticidal and Acaricidal Properties” (Bayer CropScience AG, priority 2007, published 2010)", "key": {"Myzus persicae": {"test_system": "Myzus persicae", "experiment": "Myzus persicae test (Example C), sprayed cabbage leaves", "type": "in vivo", "conditions": "4 g/ha, alone"}, "Tetranychus urticae": {"test_system": "Tetranychus urticae", "experiment": "Tetranychus urticae test (OP-resistant/spray treatment) (Example G), bean leaf disks", "type": "in vivo", "conditions": "active compound alone, 20 g/ha", "protocol": "Tetranychus urticae Test (OP-Resistant/Spray Treatment)\nAfter the desired period of time, the activity in % is determined."}}, "data": [{"substance": "triazophos [triazophos (115)]", "values": [{"measurement": "Kill in % after 1d", "setting": "Myzus persicae", "result": 30, "unit": "%"}, {"measurement": "Kill in % after 6 d", "setting": "Tetranychus urticae", "result": 0, "unit": "%"}]}]}
